Values quoted from earlier work as cited in patent US12631641B2, “Method of identifying treatment responsive non-small cell lung cancer using anaplastic lymphoma kinase (ALK) as a marker” (Ventana Medical Systems, Inc., priority 2012, dated 2026).
Read-outs that look alike come from different tables or passages of the source.

System: ALK-positive locally advanced or metastatic NSCLC
Settings: for overall response rate: ALK-positive locally advanced or metastatic NSCLC patients

Compound: C[C@@H](Oc1cc(-c2cnn(C3CCNCC3)c2)cnc1N)c1c(Cl)ccc(F)c1Cl [crizotinib, Crizotinib]
- overall response rate (first of two clinical trials, N=136, 95% CI: 42%, 59%): 50%
- overall response rate (second of two clinical trials, N=119, 95% CI: 52%, 70%): 61%
- overall response rates (subjects with ALK-positive NSCLC treated with an ALK inhibitor (Kwak et al. 2010; Shaw et al. 2011)): greater than 50%
